From article PMC4156518 (Cell metabolism, 2014)

Biological target: T1, UCP2 (murine, residues 14-309) (Mus musculus, UniProt P70406)
T1 sequence (P70406 14-309): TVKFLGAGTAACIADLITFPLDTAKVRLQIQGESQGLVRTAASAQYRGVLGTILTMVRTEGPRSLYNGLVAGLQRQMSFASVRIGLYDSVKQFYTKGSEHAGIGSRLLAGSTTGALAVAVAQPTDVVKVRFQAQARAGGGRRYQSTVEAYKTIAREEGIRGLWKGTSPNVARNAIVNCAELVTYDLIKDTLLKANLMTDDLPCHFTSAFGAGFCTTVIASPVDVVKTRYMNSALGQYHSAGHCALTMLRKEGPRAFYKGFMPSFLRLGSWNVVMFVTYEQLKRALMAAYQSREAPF
Settings: 50 µM GDP, DPC/lipid micelles, pH 6.5; peripheral site between H1 and H6

In the case of CCCCCCCCCCCCCC1(CCCC(=O)O)OCC(C)(C)N1[O] (stereo not shown) [NO-FA], the “NMR paramagnetic relaxation enhancement, displacement by GDP” value is reported as “GDP displacing FA from its binding site”.
